# Earlier results as cited in paper PMC3285612.
# Assays:
# [1] = target: chymotrypsin (Bos taurus) (UniProt P00766); settings: cited from earlier work
# [2] = target: trypsin (Bos taurus) (UniProt P00760); settings: cited from earlier work
substance,measurement,setting,value
BPTI (from UniProt P00974),Ki,[1],9 nM
same,Ki,[2],0.06 pM
